In one data set the test system is Mx1. The settings on record: PAM cell line, 12 hours.
Data set [1] has as its system feline kidney cells (CRFK cell line). Nature of the data set: cytotoxicity (FPV example). The following applies: read-out: cytotoxicity CC50; FPV example (Table 7).
The subject of data set [2] is feline fetal cells (FCWF-4 cell line). Nature of the data set: cytotoxicity (FIPV example). The settings on record: read-out: cytotoxicity CC50; FIPV example (Table 9).
In data set [3] the test system is canine fibroblasts (A-72 cell line). Kind of data set: cytotoxicity (CCoV example). The following applies: read-out: cytotoxicity CC50; CCoV example (Table 4).
A further data set deals with ISG15. The following applies: PAM cell line, 12 hours.
Data set [4] has as its system canine kidney cells (MDCK cell line). Kind of data set: cytotoxicity (LPAIV example). The following applies: read-out: cytotoxicity CC50; LPAIV example (Table 3).
For data set [5], the system named is monkey kidney cells (Vero cell line). Nature of the data set: cytotoxicity (CDV example). The following applies: read-out: cytotoxicity CC50; CDV example (Table 6).
In a further data set the test system is RNaseL. The settings on record: PAM cell line, 12 hours.
For data set [6], the system named is feline kidney cells (CRFK cell line). Nature of the data set: cytotoxicity (FCV example). The settings on record: read-out: cytotoxicity CC50; FCV example (Table 8).
The test system of data set [7] is monkey kidney cells (Vero cell line). Kind of data set: cytotoxicity (CAV example). The settings on record: read-out: cytotoxicity CC50; CAV example (Table 5).

Like-named read-outs stand apart in the source and are kept apart here.

In the case of `O=c1[nH]cnc2c1ncn2[C@@H](CO)OC(CO)CO`, in the data set with Mx1 (4000 uM), the “Mx1 expression value (2^−ΔΔCt), Fold change (multiple increase compared to control group)” value is listed as 2.8 (±0.9) Fold change. The CC50 in [1], in data set [2], in [3], in data set [4], in [5] and in [6] was more than 10 mM in each case. The CC50 in data set [7] is more than 10 mM. Moreover, the “ISG15 expression value (2^−ΔΔCt), Fold change (multiple increase compared to control group)” value with ISG15 (4000 uM) was 6.3 (±0.4) Fold change. The “RNaseL expression value (2^−ΔΔCt), Fold change (multiple increase compared to control group)” value in the data set with RNaseL (4000 uM) was 2.0 (±0.3) Fold change.

Regarding `Nc1nc2c(ncn2[C@@H](C=O)O[C@@H](C=O)CO)c(=O)[nH]1`, the “Mx1 expression value (2^−ΔΔCt), Fold change (multiple increase compared to control group)” value in the data set with Mx1 (400 uM) was 3.5 (±0.7) Fold change. The CC50 in data set [1], in [2], in data set [3], in data set [4], in data set [5] and in data set [6] was more than 6 mM each time. In data set [7], the CC50 was more than 6 mM. The “ISG15 expression value (2^−ΔΔCt), Fold change (multiple increase compared to control group)” value with ISG15 (400 uM) was 4.7 (±0.3) Fold change. Besides, the “RNaseL expression value (2^−ΔΔCt), Fold change (multiple increase compared to control group)” value in the data set on RNaseL (400 uM) was 2.5 (±0.1) Fold change.

With `O=c1[nH]c(=O)c2ncn([C@@H](CO)OC(CO)CO)c2[nH]1`, the “Mx1 expression value (2^−ΔΔCt), Fold change (multiple increase compared to control group)” value in the data set on Mx1 (4000 uM) is recorded as 2.7 (±1.4) Fold change. Further, the CC50 in data set [1], in [2], in data set [3], in [4], in data set [5] and in [6] was more than 10 mM each time. Moreover, the CC50 in [7] was more than 10 mM. Also, in the data set on ISG15 (4000 uM), the “ISG15 expression value (2^−ΔΔCt), Fold change (multiple increase compared to control group)” value is reported as 4.7 (±1.3) Fold change. Further, the “RNaseL expression value (2^−ΔΔCt), Fold change (multiple increase compared to control group)” value with RNaseL (4000 uM) is reported as 1.7 (±0.3) Fold change.

With `O=C[C@@H](CO)O[C@H](C=O)n1cnc2c(=O)[nH]cnc21`, the “Mx1 expression value (2^−ΔΔCt), Fold change (multiple increase compared to control group)” value with Mx1 (400 uM) was 3.5 (±1.1) Fold change. The CC50 in [1], in data set [2], in data set [3], in data set [4], in data set [5] and in data set [6] was more than 10 mM throughout. Besides, in [7], the CC50 was more than 10 mM. In the data set on ISG15 (400 uM), the “ISG15 expression value (2^−ΔΔCt), Fold change (multiple increase compared to control group)” value is listed as 4.0 (±0.6) Fold change. In the data set on RNaseL (400 uM), the “RNaseL expression value (2^−ΔΔCt), Fold change (multiple increase compared to control group)” value is on record as 3.0 (±0.2) Fold change.

In the case of `Nc1nc2c(ncn2[C@@H](CO)OC(CO)CO)c(=O)[nH]1`, the “Mx1 expression value (2^−ΔΔCt), Fold change (multiple increase compared to control group)” value in the data set on Mx1 (4000 uM) is given as 4.0 (±1.2) Fold change. Further, the CC50 in data set [1], in data set [2], in data set [3], in [4], in [5] and in data set [6] was more than 10 mM in each case. Besides, the CC50 in data set [7] is more than 10 mM. Further, the “ISG15 expression value (2^−ΔΔCt), Fold change (multiple increase compared to control group)” value in the data set with ISG15 (4000 uM) is reported as 4.2 (±1.5) Fold change. Moreover, in the data set on RNaseL (4000 uM), the “RNaseL expression value (2^−ΔΔCt), Fold change (multiple increase compared to control group)” value is 3.0 (±0.8) Fold change.

Take `O=C[C@@H](CO)O[C@H](C=O)n1cnc2c(=O)[nH]c(=O)[nH]c21`: the “Mx1 expression value (2^−ΔΔCt), Fold change (multiple increase compared to control group)” value in the data set with Mx1 (400 uM) was 3.5 (±1.0) Fold change. The CC50 was more than 8 mM in [1]; more than 10 mM in data set [2]; more than 10 mM in data set [3]; more than 10 mM in data set [4]; more than 10 mM in data set [5]; more than 8 mM in [6]. Besides, in data set [7], the CC50 is more than 10 mM. The “ISG15 expression value (2^−ΔΔCt), Fold change (multiple increase compared to control group)” value in the data set with ISG15 (400 uM) is listed as 4.5 (±0.4) Fold change. Also, the “RNaseL expression value (2^−ΔΔCt), Fold change (multiple increase compared to control group)” value in the data set with RNaseL (400 uM) is 3.4 (±0.2) Fold change.

The values are drawn from patent US20260382619A1.
